According to patent publication US20060035940A1, “(S)-Amlodipine malate” (Sepracor Inc., priority 2004, published 2006):

Experiments:
[1] = Multiple-dose pharmacokinetic studies in dogs, oral capsule (AUC, Cmax); settings: dog, in vivo
Experimental: The pharmacokinetic parameters AUC and Cmax from three multiple-dose studies in male and female dogs were compared. The 28-day pharmacokinetic assessments were compared. […] All doses were adjusted for salt form so all doses are in terms of mg base/kg. An aliquot of each unknown, standard and control sample was analyzed on a high performance liquid chromatographic system equipped with a Positive-Ion mass spectrometer detector (condition tabled below in Table 10).

[2] = Adhesion studies (tablet punch surfaces, blends with Avicel PH 101); type: physicochemical
Experimental: Avicel PH 101 and each (S)-amlodipine salt were pre-screened through a 25-mesh sieve to delump the powders prior to blending. […] Approximately 500 mg was weighed into the ½-inch tablet die, a tablet punch was added and 0.2 metric tons of pressure was applied using a Carver press for 2-3 seconds. The tablet was then removed, and the surfaces of the tablet punches (concave, SRC) were washed with mobile phase (1 mL). The wash was then assayed by HPLC. Three measurements were made for each blend.

Row | Adhesion ([2]; 5% (S)-Amlodipine salt in Avicel) | Adhesion ([2]; 25% (S)-Amlodipine salt in Avicel) | Substance | bioavailability compared with maleate salt [1]
1 | – | – | (S)-amlodipine L-malate | greater bioavailability than the maleate salt
2 | 1.6E−06 g (S)-amlodipine/cm^2 | 3.3E−06 g (S)-amlodipine/cm^2 | Succinate | –
